Earlier results, collected in US10689367B2, “Triazole pyridyl compounds as agonists of the APJ receptor” (AMGEN INC., priority 2016, dated 2020).

By UniProt entry, the sequences of proteins in these tests, tags left out. Where a name states a change or a piece, a line headed by the entry shows the natural chain unless it says otherwise.
UniProt P35414: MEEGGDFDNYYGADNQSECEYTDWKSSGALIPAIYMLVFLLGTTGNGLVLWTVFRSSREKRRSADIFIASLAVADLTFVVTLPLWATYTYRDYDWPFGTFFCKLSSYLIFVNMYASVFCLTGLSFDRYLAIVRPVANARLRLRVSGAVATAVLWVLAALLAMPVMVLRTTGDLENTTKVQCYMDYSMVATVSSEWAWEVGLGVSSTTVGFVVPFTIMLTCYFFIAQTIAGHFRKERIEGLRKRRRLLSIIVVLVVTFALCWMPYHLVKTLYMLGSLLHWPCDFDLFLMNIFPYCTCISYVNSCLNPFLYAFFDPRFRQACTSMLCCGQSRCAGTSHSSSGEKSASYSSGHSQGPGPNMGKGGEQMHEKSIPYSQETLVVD

Molecular target: APJ receptor (Homo sapiens (Human), UniProt P35414)
Details: higher than apelin-36; cited from earlier work

**Q.** With Apelin-13 as the substance, how does the “in vitro affinity to the APJ receptor relative to apelin-36” value read?
**A.** ~3.5 fold
